Assay results taken from patent US20190106460A1, “BINDING INHIBITORS OF THE BETA. TRANSDUCIN REPEAT-CONTAINING PROTEIN” (priority 2011, published 2019).
Where “and” joins values, the source holds several entries; their conditions need not be identical. Identical values can stand only once.

Chains of the proteins cited; added tags and fusions are not shown. Lines headed by an entry give the natural chain unless they say otherwise; changes in a name come on top.
UniProt Q9Y297: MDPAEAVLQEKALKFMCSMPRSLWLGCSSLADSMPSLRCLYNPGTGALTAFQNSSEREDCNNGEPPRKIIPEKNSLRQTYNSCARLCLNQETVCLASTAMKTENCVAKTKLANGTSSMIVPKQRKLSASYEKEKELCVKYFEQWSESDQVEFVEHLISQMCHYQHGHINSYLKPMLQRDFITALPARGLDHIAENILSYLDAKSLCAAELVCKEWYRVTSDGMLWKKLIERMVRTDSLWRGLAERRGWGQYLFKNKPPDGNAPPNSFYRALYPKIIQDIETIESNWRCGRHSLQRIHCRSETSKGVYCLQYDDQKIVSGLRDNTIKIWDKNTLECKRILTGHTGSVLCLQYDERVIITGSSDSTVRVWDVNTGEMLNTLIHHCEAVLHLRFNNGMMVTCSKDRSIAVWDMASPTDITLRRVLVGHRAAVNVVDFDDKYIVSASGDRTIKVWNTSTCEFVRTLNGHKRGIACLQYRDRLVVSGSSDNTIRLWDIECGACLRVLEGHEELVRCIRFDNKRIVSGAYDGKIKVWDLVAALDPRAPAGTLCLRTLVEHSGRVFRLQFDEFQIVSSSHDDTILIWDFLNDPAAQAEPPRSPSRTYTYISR

Target: βTrCP (Homo sapiens, UniProt Q9Y297)
Assay: Fluorescence polarisation (FP) binding assay with fluorescein-tagged IκB peptide
Details: Tables 1, 3, 7, 8; 10 nM fluorescein-tagged IκB peptide

IC50	SMILES
> 100 µM	C[C@H](N)C(=O)NCC(=O)N[C@@H](Cc1ccc(O)cc1)C(=O)N[C@@H](Cc1ccccc1)C(=O)N[C@@H](CCC(=O)O)C(N)=O [AGYFE-NH2]
28 µM and > 100 µM	C[C@H](NC(=O)[C@@H](N)CCC(=O)O)C(=O)N[C@@H](Cc1ccccc1)C(=O)N[C@@H](Cc1ccccc1)C(=O)N[C@@H](CCC(=O)O)C(N)=O [EAFFE-NH2]
> 100 µM	C[C@H](NC(=O)[C@@H](N)CCC(=O)O)C(=O)N[C@@H](Cc1ccc(O)cc1)C(=O)N[C@@H](Cc1ccccc1)C(=O)N[C@@H](CCC(=O)O)C(N)=O [EAYFE-NH2]
> 100 µM	NC(=O)CC[C@H](N)C(=O)NCC(=O)N[C@@H](Cc1ccccc1)C(=O)N[C@@H](Cc1ccccc1)C(=O)N[C@@H](CCC(=O)O)C(N)=O [QGFFE-NH2]
> 100 µM	NC(=O)CC[C@H](N)C(=O)NCC(=O)N[C@@H](Cc1ccc(O)cc1)C(=O)N[C@@H](Cc1ccccc1)C(=O)N[C@@H](CCC(=O)O)C(N)=O [QGYFE-NH2]
